Source: patent EP2768830B1, “APOPTOSIS-INDUCING AGENTS FOR THE TREATMENT OF CANCER AND IMMUNE AND AUTOIMMUNE DISEASES” (AbbVie Inc., priority 2011, dated 2013)

By UniProt entry, the sequences of proteins in these tests, tags left out.
UniProt Q07817, whole entry: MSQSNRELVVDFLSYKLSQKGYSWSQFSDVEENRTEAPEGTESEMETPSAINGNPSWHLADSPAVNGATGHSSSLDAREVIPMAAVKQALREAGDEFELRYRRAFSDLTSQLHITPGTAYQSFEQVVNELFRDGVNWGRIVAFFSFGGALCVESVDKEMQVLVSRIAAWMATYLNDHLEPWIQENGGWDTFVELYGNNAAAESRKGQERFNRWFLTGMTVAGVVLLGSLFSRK

tested on: mouse FL5.12 cells transfected with Bcl-XL; test: FL5.12 cellular assay (cell viability, CellTiter-Glo); assay type: cell-based; details: IL-3-depleted, 3% FBS assay media, 24 hours, read-out: FL5.12 Bcl-xL, - IL3, EC 50;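 note: each EC50 determination derived from duplicate measurements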

In the case of COCCOC1(Cn2ncc(-c3ccc(N4CCc5cccc(C(=O)Nc6nc7ccccc7s6)c5C4)nc3C(=O)O)c2C)CCCC(C)(C)C1 (stereo not drawn) [Example 180, 6-[8-(1,3-benzothiazol-2-ylcarbamoyl)-3,4-dihydroisoquinolin-2(1H)-yl]-3-(1-{[1-(2-methoxyethoxy)-3,3-dimethylcyclohexyl]methyl}-5-methyl-1H-pyrazol-4-yl)pyridine-2-carboxylic acid], the EC50 is reported as < 0.1 nM.

target: T1, GST-Bcl-xL (Homo sapiens, UniProt Q07817); test: not given; details: read-out: TR-FRET binding Bcl-xL Ki

O=C(Nc1nc2ccccc2s1)c1cccc2c1CN(c1ccc(-c3ccn(Cc4ccccc4)c3)c(C(=O)O)n1)CC2 [Example 125, 6-[8-(1,3-benzothiazol-2-ylcarbamoyl)-3,4-dihydroisoquinolin-2(1H)-yl]-3-(1-benzyl-1H-pyrrol-3-yl)pyridine-2-carboxylic acid] and Cc1c(CC2CCCCC2)cccc1-c1ccc(N2CCc3cccc(C(=O)Nc4nc5ccccc5s4)c3C2)nc1C(=O)O [Example 107, 6-[8-(1,3-benzothiazol-2-ylcarbamoyl)-3,4-dihydroisoquinolin-2(1H)-yl]-3-[3-(cyclohexylmethyl)-2-methylphenyl]pyridine-2-carboxylic acid] are within 1.5-fold of each other in Ki: 0.3 nM for the first, 0.2 nM for the second.

Compared with CN(c1cccc(-c2ccc(N3CCc4cccc(C(=O)Nc5nc6ccccc6s5)c4C3)nc2C(=O)O)c1C#N)S(=O)(=O)C1CCCCC1 [Example 181, 6-[8-(1,3-benzothiazol-2-ylcarbamoyl)-3,4-dihydroisoquinolin-2(1H)-yl]-3-{2-cyano-3-[(cyclohexylsulfonyl)(methyl)amino]phenyl}pyridine-2-carboxylic acid], Cc1c(-c2ccc(N3CCc4cccc(C(=O)Nc5nc6ccccc6s5)c4C3)nc2C(=O)O)cnn1CC1CCCCC1 [Example 43, 6-[8-(1,3-benzothiazol-2-ylcarbamoyl)-3,4-dihydroisoquinolin-2(1H)-yl]-3-[1-(cyclohexylmethyl)-5-methyl-1H-pyrazol-4-yl]pyridine-2-carboxylic acid] is higher in Ki: < 0.1 nM for the first, 0.9 nM for the second.

tested on: not given; test: not given; details: oral bioavailability, Sprague-Dawley rats, p.o. dose 5 mpk, 10% DMSO in PEG-400

With Cc1c(-c2ccc(N3CCc4cccc(C(=O)Nc5nc6ccccc6s5)c4C3)nc2C(=O)O)cnn1Cc1ccccc1 [Example 20, 6-[8-(1,3-benzothiazol-2-ylcarbamoyl)-3,4-dihydroisoquinolin-2(1H)-yl]-3-(1-benzyl-5-methyl-1H-pyrazol-4-yl)pyridine-2-carboxylic acid] the “F (%), dose” value was 17, 5 mpk %.

tested on: not listed separately; test: in vivo; details: rat, in vivo, po, 1 mg/kg

In order of falling bioavailability:
1. Cc1c(-c2ccc(N3CCc4cccc(C(=O)Nc5nc6ccccc6s5)c4C3)nc2C(=O)O)cccc1N(C)c1ccccc1 [Example 156, 6-[8-(1,3-benzothiazol-2-ylcarbamoyl)-3,4-dihydroisoquinolin-2(1H)-yl]-3-{2-methyl-3-[methyl(phenyl)amino]phenyl}pyridine-2-carboxylic acid]  39%
2. COCCOC1(Cn2ncc(-c3ccc(N4CCc5cccc(C(=O)Nc6nc7ccccc7s6)c5C4)nc3C(=O)O)c2C)CCCCCC1 [Example 151, 6-[8-(1,3-benzothiazol-2-ylcarbamoyl)-3,4-dihydroisoquinolin-2(1H)-yl]-3-(1-{[1-(2-methoxyethoxy)cycloheptyl]methyl}-5-methyl-1H-pyrazol-4-yl)pyridine-2-carboxylic acid]  30%

same assay, conditions: rat, plasma, po, 5 mg/kg

In order of rising bioavailability:
1. Cc1c(CC2CCCCC2)cccc1-c1ccc(N2CCc3cccc(C(=O)Nc4nc5ccccc5s4)c3C2)nc1C(=O)O [Example 107, 6-[8-(1,3-benzothiazol-2-ylcarbamoyl)-3,4-dihydroisoquinolin-2(1H)-yl]-3-[3-(cyclohexylmethyl)-2-methylphenyl]pyridine-2-carboxylic acid]  14%
2. COCCC1(Cn2ncc(-c3ccc(N4CCc5cccc(C(=O)Nc6nc7ccccc7s6)c5C4)nc3C(=O)O)c2C)CCCC(C)(C)C1 (stereo not drawn) [Example 146, 6-[8-(1,3-benzothiazol-2-ylcarbamoyl)-3,4-dihydroisoquinolin-2(1H)-yl]-3-(1-{[1-(2-methoxyethyl)-3,3-dimethylcyclohexyl]methyl}-5-methyl-1H-pyrazol-4-yl)pyridine-2-carboxylic acid]  16%
3. Cc1c(-c2ccc(N3CCc4cccc(C(=O)Nc5nc6ccccc6s5)c4C3)nc2C(=O)O)cnn1CC1CCC(F)(F)CC1 [Example 73, 6-[8-(1,3-benzothiazol-2-ylcarbamoyl)-3,4-dihydroisoquinolin-2(1H)-yl]-3-{1-[(4,4-difluorocyclohexyl)methyl]-5-methyl-1H-pyrazol-4-yl}pyridine-2-carboxylic acid]  19%
4. Cc1nn(Cc2ccccc2)cc1-c1ccc(N2CCc3cccc(C(=O)Nc4nc5ccccc5s4)c3C2)nc1C(=O)O [Example 19, 6-[8-(1,3-benzothiazol-2-ylcarbamoyl)-3,4-dihydroisoquinolin-2(1H)-yl]-3-(1-benzyl-3-methyl-1H-pyrazol-4-yl)pyridine-2-carboxylic acid]  22%
5. O=C(Nc1nc2ccccc2s1)c1cccc2c1CN(c1ccc(-c3cccc(Cc4ccccc4)c3)c(C(=O)O)n1)CC2 [Example 106, 6-[8-(1,3-benzothiazol-2-ylcarbamoyl)-3,4-dihydroisoquinolin-2(1H)-yl]-3-(3-benzylphenyl)pyridine-2-carboxylic acid]  24%
6. O=C(Nc1nc2ccccc2s1)c1cccc2c1CN(c1ccc(-c3cnn(Cc4ccccc4Cl)c3)c(C(=O)O)n1)CC2 [Example 25, 6-[8-(1,3-benzothiazol-2-ylcarbamoyl)-3,4-dihydroisoquinolin-2(1H)-yl]-3-[1-(2-chlorobenzyl)-1H-pyrazol-4-yl]pyridine-2-carboxylic acid]  24%
7. O=C(Nc1nc2ccccc2s1)c1cccc2c1CN(c1ccc(-c3cnn(Cc4cccc(N5CCCC5)n4)c3)c(C(=O)O)n1)CC2 [Example 22, 6-[8-(1,3-benzothiazol-2-ylcarbamoyl)-3,4-dihydroisoquinolin-2(1H)-yl]-3-(1-{[6-(pyrrolidin-1-yl)pyridin-2-yl]methyl}-1H-pyrazol-4-yl)pyridine-2-carboxylic acid]  27%
8. Cc1nn(Cc2ccccc2)c(C)c1-c1ccc(N2CCc3cccc(C(=O)Nc4nc5ccccc5s4)c3C2)nc1C(=O)O [Example 12, 6-[8-(1,3-benzothiazol-2-ylcarbamoyl)-3,4-dihydroisoquinolin-2(1H)-yl]-3-(1-benzyl-3,5-dimethyl-1H-pyrazol-4-yl)pyridine-2-carboxylic acid]  29%
9. COCCCC1(Cn2ncc(-c3ccc(N4CCc5cccc(C(=O)Nc6nc7ccccc7s6)c5C4)nc3C(=O)O)c2C)CCCCC1 [Example 97, 6-[8-(1,3-benzothiazol-2-ylcarbamoyl)-3,4-dihydroisoquinolin-2(1H)-yl]-3-(1-{[1-(3-methoxypropyl)cyclohexyl]methyl}-5-methyl-1H-pyrazol-4-yl)pyridine-2-carboxylic acid]  33%
10. COCCC1(Cn2ncc(-c3ccc(N4CCc5cccc(C(=O)Nc6nc7ccccc7s6)c5C4)nc3C(=O)O)c2C)CCCCCC1 [Example 134, 6-[8-(1,3-benzothiazol-2-ylcarbamoyl)-3,4-dihydroisoquinolin-2(1H)-yl]-3-(1-{[1-(2-methoxyethyl)cycloheptyl]methyl}-5-methyl-1H-pyrazol-4-yl)pyridine-2-carboxylic acid]  50%
11. O=C(Nc1nc2ccccc2s1)c1cccc2c1CN(c1ccc(-c3cccc(OC4CCCCC4)c3F)c(C(=O)O)n1)CC2 [Example 119, 6-[8-(1,3-benzothiazol-2-ylcarbamoyl)-3,4-dihydroisoquinolin-2(1H)-yl]-3-[3-(cyclohexyloxy)-2-fluorophenyl]pyridine-2-carboxylic acid]  54%

target: T1, GST-Bcl-xL; test: biochemical; details: not given

Going from Cc1c(-c2ccc(N3CCc4cccc(C(=O)Nc5nc6ccccc6s5)c4C3)nc2C(=O)O)cnn1C[C@@H]1CC[C@@H]2C[C@H]1C2(C)C [Example 85, 6-[8-(1,3-benzothiazol-2-ylcarbamoyl)-3,4-dihydroisoquinolin-2(1H)-yl]-3-(1-{[(1R,2R,5R)-6,6-dimethylbicyclo[3.1.1]hept-2-yl]methyl}-5-methyl-1H-pyrazol-4-yl)pyridine-2-carboxylic acid] to COCCOC1(Cn2ncc(-c3ccc(N4CCc5cccc(C(=O)Nc6nc7ccccc7s6)c5C4)nc3C(=O)O)c2C)CCCC(C)(C)C1 (stereo not drawn) [Example 180, 6-[8-(1,3-benzothiazol-2-ylcarbamoyl)-3,4-dihydroisoquinolin-2(1H)-yl]-3-(1-{[1-(2-methoxyethoxy)-3,3-dimethylcyclohexyl]methyl}-5-methyl-1H-pyrazol-4-yl)pyridine-2-carboxylic acid], the Ki falls from 2 nM to < 0.1 nM. The second binds more tightly here.
